Experimental data taken from patent publication US20120301897A1, “ACETAMINOPHEN-PROTEIN ADDUCT ASSAY DEVICE AND METHOD” (BOARD OF TRUSTEES OF THE UNIVERSITY OF ARKANSAS, priority 2008, published 2012).

Assays:
[1] = Pharmacokinetic analysis of APAP-protein adducts in serum of adolescents and children with APAP overdose (HPLC-EC assay)

3-(cystein-S-yl) APAP (3-Cys-A)-protein adducts [APAP-protein adducts]
time adducts were present in blood after the overdose [1]: 9 days
mean (±SD) ke of adducts in serum ([1]; serum): 0.486 ± 0.084 day⁻¹
time adducts remained in blood after the APAP overdose (adults with ALF): 12 days
mean elimination half-life (serum, adult patients with ALF after APAP overdose, 20 patients): 42 ± 5.04 h
mean ke (elimination rate constant) (serum, adult patients with ALF after APAP overdose, empiric Bayesian estimates, 20 patients with 4 consecutive daily samples): 0.402 ± 0.05 day⁻¹
